This passage reports Ki results from US20060030585A1, “Tricyclic delta-opioid modulators” (priority 2004, published 2006).

The chains behind the UniProt entries cited, without tags or fusion partners.
UniProt P33535, whole entry: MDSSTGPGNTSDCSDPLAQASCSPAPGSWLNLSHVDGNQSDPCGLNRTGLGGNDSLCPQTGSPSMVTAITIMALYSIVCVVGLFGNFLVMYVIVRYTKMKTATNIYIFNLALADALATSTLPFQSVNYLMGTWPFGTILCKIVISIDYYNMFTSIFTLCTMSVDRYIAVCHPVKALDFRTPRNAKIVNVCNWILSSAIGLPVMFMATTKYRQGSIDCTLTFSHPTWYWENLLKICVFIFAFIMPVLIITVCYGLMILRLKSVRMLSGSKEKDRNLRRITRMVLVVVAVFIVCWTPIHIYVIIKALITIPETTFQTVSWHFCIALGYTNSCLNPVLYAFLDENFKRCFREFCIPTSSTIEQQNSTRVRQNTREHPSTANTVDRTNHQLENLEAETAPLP
UniProt P33533, whole entry: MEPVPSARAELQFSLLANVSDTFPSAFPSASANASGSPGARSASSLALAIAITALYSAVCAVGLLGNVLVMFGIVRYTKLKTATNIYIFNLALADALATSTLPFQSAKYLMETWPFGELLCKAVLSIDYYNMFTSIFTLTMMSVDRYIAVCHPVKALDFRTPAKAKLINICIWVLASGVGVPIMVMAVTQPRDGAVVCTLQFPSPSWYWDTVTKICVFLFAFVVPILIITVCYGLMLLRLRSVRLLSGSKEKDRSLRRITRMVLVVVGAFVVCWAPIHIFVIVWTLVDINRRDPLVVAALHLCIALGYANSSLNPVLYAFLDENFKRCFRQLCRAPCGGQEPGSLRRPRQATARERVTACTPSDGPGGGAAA

The target in assay [1] is mu opioid receptor (Rattus norvegicus, UniProt P33535). Briefly: Rat brain mu opioid receptor binding assay ([3H]DAMGO). The following applies: read-out: MOR Ki; Rat mu opioid receptor binding constant; rat forebrain membranes, ~0.8 nM [3H]DAMGO.
The target of assay [2] is delta opioid receptor (Rattus norvegicus, UniProt P33533). Briefly: Rat brain delta opioid receptor binding assay ([3H]DPDPE). To be noted: read-out: DOR Ki; Rat delta opioid receptor binding constant; rat forebrain membranes, ~4 nM [3H]DPDPE. The protocol:
Rat Brain Delta Opioid Receptor Binding Assay
Procedure: Male, Sprague Dawley rats (150-250 g, VAF, Charles River, Kingston, N.Y.) were killed by CO2, and their brains removed and placed immediately in ice cold Tris HCl buffer (50 mM, pH 7.4). The forebrains were separated from the remainder of the brain by a coronal transection, beginning dorsally at the colliculi and passing ventrally through the midbrain-pontine junction. After dissection, the forebrains were homogenized in Tris buffer in a Teflon®-glass homogenizer. The homogenate was diluted to a concentration of 1 g of forebrain tissue per 80 mL Tris and centrifuged at 39,000×g for 10 min. The pellet was resuspended in the same volume of Tris buffer containing 5 mM MgCl2 with several brief pulses from a Polytron homogenizer. […] To each sample area 2×50 μL of Betaplate Scint scintillation fluid (LKB) was added and the radioactivity quantified on a LKB (Wallac) 1205 BetaPlate liquid scintillation counter.
Analysis: The data from the scintillation counter were used to calculate either the % inhibition compared to control binding (when only a single concentration of test compound was evaluated) or a Ki value (when a range of concentrations was tested). Percent inhibition was calculated as: [(total dpm-test compound dpm)/(total dpm-nonspecific dpm)]*100. Kd and Ki values were calculated using GraphPad PRISM data analysis program.

For `CN(CCO)C(=O)c1ccc2c(c1)Oc1ccccc1C2=C1CC2CCC(C1)N2C(=O)OC(C)(C)C`, the Ki in assay [1] and in assay [2] was greater than 10 µM each time.
